These are literature values, as cited in paper PMC4181337 (Metallomics : integrated biometal science, 2013).

The conditions of this data set: daily administration 25 to 125 mg in humans; cited from earlier work.

Turning to ammonium vanadyl tartrate, the absorption is 1.1%.
